Reference: patent publication US20020068038A1, “Foaming tablet for cleaning the oral cavity and preparation method thereof” (priority 1998, published 2002)

Tested on: Bacteroides melaninogenicus ssp intermedius
[1] = Bacteroides melaninogenicus ssp intermedius, MH medium, 96 hours anaerobic cultivation at 37° C., less than 10 colonies on LRBB agar

Row | SMILES | disinfection concentration [1] | disinfection concentration
1 | O=S(=O)([O-])[O-].[Mg+2] [MgSO4, magnesium sulfate] | 200 | 
2 | O=C([O-])O.[Na+] [NaHCO3, sodium bicarbonate] |  | 100
3 | O=C([O-])O.[K+] [KHCO3, potassium bicarbonate] |  | 50
4 | [Cl-].[Na+] [NaCl, sodium chloride] | 650 | 

Where two headings read alike, the source gives them in different places.
